We go through 1 substance from US20140349924A1 (Novo Nordisk A/S, priority 2007, published 2014).

Data set [1] has as its system freshly excised rat gut sacs (proximal jejunum). As to the kind of experiment: Rat gut sac model, MALDI-MS analysis of degradation products. The following applies: with propylene glycol vs buffer control, 2 h. The protocol:
(§1) Freshly excised rat small intestine was rinsed in ice cold saline. Then gut sacs of 4 cm each in length were prepared. […] Thereafter the filled gut sacs were incubated for 2 h in 0.5 ml culture medium pH 7.4 at 37° C.
MALDI-MS (Matrix-assisted laser desorption/ionization-mass spectrometry) was used analyze degradation products. Aliquots (1 μl) of acidified sample solutions and reference samples were deposited on a PAC384 MALDI plate, blotted with filter paper after 30 s and washed twice with 5 μl of 15 mM ammonium phosphate in 0.1% TFA. The samples were analyzed using Autoflex TofTof (Bruker Daltonics, USA).

The conditions of data set [2]: absorbed into portal circulation; cited from earlier work.
Data set [3] relates to freshly excised rat gut sacs (proximal jejunum). The following applies: presence vs absence of 10% PG; 1 mM; 2 h; culture medium pH 7.4, 37° C. The protocol: as §1

Take insulin: the “Degradation of insulin (MALDI-MS)” value in data set [1] is given as “reduces the degradation”. Moreover, in data set [2], the “Insulin retained and metabolized in first passage through the liver” value is given as “roughly 60%”. Besides, the “Permeated insulin across intestinal mucosa (HPLC)” value in data set [3] is reported as “permeates to a higher content”.
